Data published in patent publication EP4831188A1, “GLYCYRRHETINIC ACID DERIVATIVE AND USE THEREOF” (dated 2026).
Marks after values point to notes of the source that are not given here.

How the values were obtained:
BALB/c mice = assay: Chloroquine-induced pruritus in mice; conditions: for number of scratching bouts in mice: result in words; for Number of scratching bouts: 100 mg once daily for 3 days, test compounds 3% cream, pimecrolimus cream 10 mg/g
Description: • 6.1 Animals: Balb/c mice, female. • 6.2 Reagents: Chloroquine; normal saline.
After 3 days of adaptive feeding, 50 female Balb/c mice were randomly divided into groups, with 10 mice in each group. The hair on a 2×3 cm^2 area of the back of each mouse was completely removed using depilatory cream. Except for the blank control group, the test groups (Compound 1, Compound 16) and the model group were treated with the corresponding drugs or matrix (pimecrolimus cream matrix) at the depilated site, 100 mg per time, once daily for 3 consecutive days. The positive control group was treated with the corresponding weight of pimecrolimus cream. Thirty minutes after the last administration, chloroquine (40 mg/kg) was injected subcutaneously. The blank control group was injected subcutaneously with the corresponding volume of normal saline only. The number of scratching bouts within 20 min after chloroquine injection was recorded.
• Test compounds: The formulations were prepared with reference to pimecrolimus cream (test compound concentration: 3%). • Positive control: Commercially available pimecrolimus cream (from MEDA Manufacturing, specification: 10 mg/g).

[1] = Body weight in the atopic dermatitis assay; conditions: for effect on the body weight of mice: result in words, atopic dermatitis model
Description: The backs of BALB/c mice were shaved. Except for the blank control group, the mice were topically treated with DNFB solution (solvent: mixture of acetone and olive oil, volume ratio 4:1) for sensitization and challenge. No treatment was administered on days 3 to 6. From day 7, the solution was applied once every 2 days for a total of 10 applications, and modeling was completed after the 10th application. The model animals were evenly divided into groups according to the observation scores of skin lesions, with 8 mice in each group. Subsequently, the test groups (Compound 1, Compound 16) received the corresponding drugs at 150 µL per time, twice daily. The model group received the corresponding volume of blank matrix (pimecrolimus cream matrix) at the same dosing frequency. The observation scores of skin lesions were recorded on days 3, 6, and 10 (six items were scored: erythema/darkening, edema/papules, exudation/crusting, erosion, lichenification/prurigo, and dryness, and the total score was the sum of the six individual scores; scoring was performed according to the SCORAD scoring criteria: scores 0 to 3, where score 0: none; score 1: mild; score 2: moderate; score 3: severe). Body weights were measured on days 0, 3, 6, and 10 after modeling.

ICR mice = assay: Inhibitory activity assay against ear swelling in ICR mice (phorbol ester, TPA); conditions: for inhibitory activity in the mouse ear swelling inflammation model induced by phorbol ester: result in words; for Thickness: right ear, test compounds 3% cream, pimecrolimus cream 10 mg/g, compound dexamethasone acetate cream 0.75 mg/g, 50 µL
Description: • ICR mice, male, 20±2 g. • 3.2 Reagents: Inflammatory agent (phorbol ester (TPA)).
ICR mice were randomly divided into groups, with 8 mice in each group. The thickness of the right ear of each animal was measured using a micrometer. Subsequently, except for the blank control group, all mice in other groups were administered 20 µL of 0.03% TPA on both the inner and outer sides of the right ear (10 µL per side) to induce inflammation. The mice were dosed once at 1 h before modeling and 1 h after modeling, respectively. The test groups (Compound 1, Compound 16) received a dose volume of 50 µL each time. The blank control group and the model group (with matrix) were treated with the corresponding volumes of blank matrix (pimecrolimus cream matrix). The positive control group was treated with an equal volume of pimecrolimus cream or compound dexamethasone acetate cream. Before modeling, the ears should be cleaned prior to TPA application. Ear thickness measurement: The thickness of the right ear was measured at 0 h, 2 h, 4 h, and 6 h after TPA induction.
• Test compounds: The formulations were prepared with reference to pimecrolimus cream (from MEDA Manufacturing) (test compound concentration: 3%). • Positive control: Commercially available compound dexamethasone acetate cream (from China Resources Sanjiu Medical & Pharmaceutical Co., Ltd., specification: 0.75 mg/g); commercially available pimecrolimus cream (from MEDA Manufacturing, specification: 10 mg/g).

guinea pigs = assay: Inhibitory activity assay against ear swelling in guinea pigs (DMSO/ethanol inflammatory agent); conditions: topical, 200 µL per ear; test compounds and glycyrrhetinic acid 40 mg/mL in absolute ethanol; hydrocortisone butyrate cream 1 mg/g; 45 min after modeling
Text: • 2.1 Animals: Ordinary grade guinea pigs, weighing about 300 g. • 2.2 Reagents: Inflammatory agent made from 80% dimethyl sulfoxide (DMSO) and 20% absolute ethanol; DMSO; absolute ethanol, analytical grade.
Ordinary grade guinea pigs were randomly divided into groups, with 10 animals in each group, half male and half female. The inner and outer sides of the left and right ears of the guinea pigs were shaved, and 4 points were marked on the medial side of the left ear margin. The thickness of these 4 points on the auricle of the guinea pigs was measured using a vernier caliper, and the average value was obtained as the baseline before administration. The corresponding drugs were applied dropwise to the auricles of the guinea pigs in each test group (Compound 1, Compound 2, Compound 3, Compound 9, Compound 16, Compound 17, Compound 18, Compound 21) and the glycyrrhetinic acid group, with 200 µL per ear. The blank control group and the model group were treated with the corresponding volume of absolute ethanol only. The positive control hydrocortisone butyrate group was treated with an equal volume of hydrocortisone butyrate cream. After 30 min of administration, the drugs were wiped off. The animals in the model group and the test groups were treated with the inflammatory agent on both sides of the left auricle (50 µL per ear). The blank control group was treated with the corresponding volume of normal saline only. At 45 min after modeling, the thickness of these 4 points was measured using a vernier caliper, and the average value was obtained. The difference was calculated as the ear swelling value of the guinea pigs. Inhibition rate of swelling value = (Swelling value of the model group - Swelling value of the sample group) / Swelling value of model group × 100%, wherein the sample group includes each test group, glycyrrhetinic acid group, and positive control hydrocortisone butyrate group.
• Test compounds and glycyrrhetinic acid: Dissolved in absolute ethanol to prepare a solution with a concentration of 40 mg/mL. • Positive control: Commercially available hydrocortisone butyrate cream (from Hubei Heng'an Fulin Pharmaceutical Co., Ltd., specification: 1 mg/g).

RAW264.7 cells = assay: Anti-inflammatory activity assay in cells (LPS-induced IL-1β content, ELISA); conditions: LPS 100 ng/mL, 24 h
Description: • 1.1 Cells: RAW264.7 cells, purchased from PROCELL, lot No.: JYBR1POD9R. • 1.2 Reagents: Lipopolysaccharide (LPS), purchased from SIGMA; DMEM cell culture medium, purchased from GIBCO; Mouse IL-1β ELISA Kit, purchased from Ruixin Bio.
RAW264.7 cells were seeded into a 96-well plate at 1×10^5 cells/well, with 100 µL of cell suspension added to each well. 50 µL of drugs at corresponding gradient concentrations (0.00128, 0.0064, 0.032, 0.16, 0.8, 4, 20, and 100 µM, respectively) were added to the wells of the test groups (Compounds 1 to 27) and the control drug groups (glycyrrhetinic acid and Comparative Compounds 1 to 10). The corresponding volume of culture medium was added to the wells of the blank control group and the model group. After 1 h of incubation, 50 µL of LPS (final LPS concentration of 100 ng/mL) was added to the wells of the model group, the control drug groups, and the test groups. After incubation in an incubator at 37°C and 5% CO2 for 24 h, the supernatant was collected by centrifugation at 1000 rpm for 5 min. The IL-1β content was determined according to the instructions of the kit, and the IC50 values were calculated.

[2] = 0-10 min after chloroquine 40 mg/kg s.c.
[3] = 0-20 min after chloroquine 40 mg/kg s.c.
[4] = 10-20 min after chloroquine 40 mg/kg s.c.

| Compound | IC50 (RAW264.7 cells) [nM] | number of scratching bouts in mice (BALB/c mice) | effect on the body weight of mice [1] | inhibitory activity in the mouse ear swelling inflammation model induced by phorbol ester (ICR mice) | Ear swelling inhibition rate (guinea pigs) | Number of scratching bouts (BALB/c mice; [2]) | Number of scratching bouts (BALB/c mice; [3]) | Number of scratching bouts (BALB/c mice; [4]) | Body weight of animals ([1]; Day 0) [g] | Body weight of animals ([1]; Day 3) [g] | Body weight of animals ([1]; Day 6) [g] | Body weight of animals ([1]; Day 10) [g] | Thickness (ICR mice; 0 h after TPA induction) [mm] | Thickness (ICR mice; 2 h after TPA induction) [mm] | Thickness (ICR mice; 4 h after TPA induction) [mm] | Thickness (ICR mice; 6 h after TPA induction) [mm] |
| --- | --- | --- | --- | --- | --- | --- | --- | --- | --- | --- | --- | --- | --- | --- | --- | --- |
| CCN(CC)CCOC(=O)[C@@]1(C)CC[C@]2(C)CC[C@]3(C)C(=CC(=O)[C@@H]4[C@@]5(C)CCC(=O)C(C)(C)[C@@H]5CC[C@]43C)[C@@H]2C1.Cl | – | significantly reduce | no significant effect | significant inhibitory activity | B (greater than 40% and less than or equal to 70%) | – | – | – | – | – | – | – | – | – | – | – |
| CC1(C)C(=O)C(Cl)=C[C@]2(C)[C@H]3C(=O)C=C4[C@H]5C[C@@](C)(C(=O)O)CC[C@]5(C)CC[C@@]4(C)[C@]3(C)CC[C@@H]12 | < 20 | significantly reduce | no significant effect | significant inhibitory activity | A (greater than 70%) | – | – | – | – | – | – | – | – | – | – | – |
| CCN(CC)CCOC(=O)[C@@]1(C)CC[C@]2(C)CC[C@]3(C)C(=CC(=O)[C@@H]4[C@@]5(C)C=C(C#N)C(=O)C(C)(C)[C@@H]5CC[C@]43C)[C@@H]2C1 | < 20 | significantly reduce | no significant effect | significant inhibitory activity | B (greater than 40% and less than or equal to 70%) | – | – | – | – | – | – | – | – | – | – | – |
| CCN(CC)CCOC(=O)[C@@]1(C)CC[C@]2(C)CC[C@]3(C)C(=CC(=O)[C@@H]4[C@@]5(C)CCC(=O)C(C)(C)[C@@H]5CC[C@]43C)[C@@H]2C1 | < 20 | significantly reduce | no significant effect | significant inhibitory activity | A (greater than 70%) | 18+6 | 36 · | 18 · | 20.01 ± 0.84 | 19.45 ± 0.99 | 19.05 ± 1.16 | 18.86 ± 0.95 | 0.213 ± 0.01 | 0.264 ± 0.027 | 0.300±0.043 | 0.293±0.066 |
| CCN(CC)CCOC(=O)[C@@]1(C)CC[C@]2(C)CC[C@]3(C)C(=CC(=O)[C@@H]4[C@@]5(C)CCC(=O)C(C)(C)[C@@H]5CC[C@]43C)[C@H]2C1 | < 20 | significantly reduce | no significant effect | significant inhibitory activity | A (greater than 70%) | – | – | – | – | – | – | – | – | – | – | – |

Second part, led by results:

| IC50 (RAW264.7 cells) [nM] | Compound | number of scratching bouts in mice (BALB/c mice) | effect on the body weight of mice [1] | inhibitory activity in the mouse ear swelling inflammation model induced by phorbol ester (ICR mice) | Ear swelling inhibition rate (guinea pigs) | Number of scratching bouts (BALB/c mice; [2]) | Number of scratching bouts (BALB/c mice; [3]) | Number of scratching bouts (BALB/c mice; [4]) | Body weight of animals ([1]; Day 0) [g] | Body weight of animals ([1]; Day 3) [g] | Body weight of animals ([1]; Day 6) [g] | Body weight of animals ([1]; Day 10) [g] | Thickness (ICR mice; 0 h after TPA induction) [mm] | Thickness (ICR mice; 2 h after TPA induction) [mm] | Thickness (ICR mice; 4 h after TPA induction) [mm] | Thickness (ICR mice; 6 h after TPA induction) [mm] |
| --- | --- | --- | --- | --- | --- | --- | --- | --- | --- | --- | --- | --- | --- | --- | --- | --- |
| < 20 | (2S,4aS,6aS,6bR,8aR,12aS,12bR,14bR)-11-chloro-2,4a,6a,6b,9,9,12a-heptamethyl-10,13-dioxo-1,2,3,4,4a,5,6,6a,6b,7,8,8a,9,10,12a,12b,13,14b-octadecahydropicene-2-carboxylate triethanolamine salt | significantly reduce | no significant effect | significant inhibitory activity | B (greater than 40% and less than or equal to 70%) | – | – | – | – | – | – | – | – | – | – | – |
| < 20 | CC1(C)C(=O)C(Cl)=C[C@]2(C)[C@H]3C(=O)C=C4[C@@H]5C[C@@](C)(C(=O)O)CC[C@]5(C)CC[C@@]4(C)[C@]3(C)CC[C@@H]12 | significantly reduce | no significant effect | significant inhibitory activity | A (greater than 70%) | 17+4 | 33 · | 16+4** | 20.25 ± 1.34 | 19.91 ± 1.41 | 19.88 ± 1.14 | 20.55 ± 1.23 | 0.215 ± 0.008 | 0.262 ± 0.035 | 0.303±0.032 | 0.352±0.033 |
| 20 to 100 | CN(C)c1nc2c(s1)C[C@]1(C)[C@H]3C(=O)C=C4[C@@H]5C[C@@](C)(C(=O)O)CC[C@]5(C)CC[C@@]4(C)[C@]3(C)CC[C@H]1C2(C)C | significantly reduce | no significant effect | significant inhibitory activity | A (greater than 70%) | – | – | – | – | – | – | – | – | – | – | – |
